## Binding of CDR-mutated scFvs to a peptide of the spike HR2 region

Target peptide (SARS-CoV-2 spike, HR2 region): PDVDLGDISGINAS

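Phage display of a naive human antibody library on the peptide gave the parent. Library AAYL51 holds single substitutions and randomly drawn double and triple substitutions in the CDRs. The scFvs were displayed on barcoded MATa yeast, the peptide on MATalpha yeast. After mating in shaken culture at 30 °C for 16 h, diploids were selected and their barcode pairs sequenced. The ratio of observed to expected reads was calibrated, replicate by replicate, on BCL2-family standards whose Kd was known from biolayer interferometry. Mating was done three times.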

The variants keep the light chain, the linker and the frameworks of Ab-91 (scFv order VL, a 15-residue (Gly4Ser)3 linker, VH).
VL: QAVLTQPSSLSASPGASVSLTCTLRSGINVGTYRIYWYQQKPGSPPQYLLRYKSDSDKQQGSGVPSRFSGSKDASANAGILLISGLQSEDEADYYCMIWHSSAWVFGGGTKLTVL
VH: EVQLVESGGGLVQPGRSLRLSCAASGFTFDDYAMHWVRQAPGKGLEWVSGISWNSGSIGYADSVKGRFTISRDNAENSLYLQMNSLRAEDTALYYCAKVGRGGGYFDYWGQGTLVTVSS

Variants are written as CDR1, CDR2 and CDR3 of the heavy chain (limits as in the source). Parent: GFTFDDYAMH, GISWNSGSIGYADSVK, VGRGGGYFDY. Values are log10 of the apparent Kd in nM; lower means stronger binding. "ND" marks a missing value. The strain was present, yet no cells mated with the target were sequenced in that replicate, which points to weak or no binding. As a blank, each scFv also met three strains without target: over library AAYL51, 21% of these pairings were detected, typically at 4.54 and seldom below 3.26. For each scFv, signals with the empty controls are counted beside the result, with their mean in brackets.

| # | CDR-H1 | CDR-H2 | CDR-H3 | log10 Kd (nM) by replicate | empty controls |
|---|---|---|---|---|---|
| 1 | GFTFDDYAMH | GISWNSGQIGCAMSVK | VGRGGGYFDY | ND / ND / ND | 3 of 9 (4.24) |
| 2 | GRTFDDYAMH | GISWNPGSDGYADSVK | VGRGGGYFDY | ND / 6.81 / ND | 4 of 9 (4.88) |
| 3 | GFTFRDYAMH | GISWNSGSIGYADSVE | YGRGGGYFDY | ND / ND / ND | 0 of 9 |
| 4 | GFTFDDYAMH | GISWDSGSIGYEDSVK | VGRGIGYFDY | ND / 5.83 / 5.24 | 3 of 9 (4.27) |
| 5 | GFTFPDYGMH | GISWNSGSIGYADSVK | VGRGGGYMDY | 0.48 / 0.43 / -0.20 | 6 of 9 (4.98) |
| 6 | GFTFDDYAMH | GISWNWASIGYAASVK | VGRGGGYFDY | ND / ND / ND | 1 of 9 (2.84) |
| 7 | GFTFDDYAMH | GISWNSGDIGYADSCK | VGRGFGYFDY | ND / ND / ND | 0 of 9 |
| 8 | GFTFDDYAMH | GISWNIGSIGYAWSVK | VGRGGFYFDY | ND / ND / ND | 0 of 9 |
| 9 | GFTFDDYAMH | GISWNSGSIGLADSVK | VTRGGGYFDY | 6.31 / ND / ND | 2 of 9 (4.42) |
| 10 | GFTFDDYAVH | GISWNSGSIGYADSVK | RGRGGGYFDD | 3.63 / 5.05 / ND | 1 of 9 (3.89) |
| 11 | GFTFDVYAMH | GISWNSGSIGYADSVK | VGRGGGYNDT | ND / ND / ND | 3 of 9 (4.54) |
| 12 | GFTFDDYAMH | GHSWNSTSIGYADSVK | VGRGGNYFDY | 4.36 / ND / ND | 1 of 9 (4.07) |
| 13 | GFDFDDYAMH | GISWNSGSIGYADSVK | VGRGGGYMDR | 3.23 / 3.30 / 3.65 | 2 of 9 (4.95) |
| 14 | GFEFDDYAMH | GISWNRGSILYADSVK | VGRGGGYFDY | ND / 3.64 / ND | 0 of 9 |
| 15 | GVTFDDYAMH | GISWNSGSIGYADSVK | VGRGGGYPDL | 5.68 / 4.30 / ND | 3 of 9 (4.52) |
| 16 | GFTFDDYAMH | GISTNSGSINYADFVK | VGRGGGYFDY | 4.26 / 6.19 / ND | 1 of 9 (4.54) |
| 17 | GFTFGSYAMH | GISWNSGSIGYADSVP | VGRGGGYFDY | 5.57 / ND / ND | 2 of 9 (4.72) |
| 18 | GFTFNDYAMH | GISWNSGSEGYADSVK | VGRGGGYFVY | ND / ND / ND | 2 of 9 (4.17) |
| 19 | GFTYDYYAMH | GISWNSGSIGYADSVK | VSRGGGYFDY | 1.32 / 1.34 / 0.97 | 2 of 9 (5.11) |
| 20 | GFNFDDYAMH | GIWWNSGEIGYADSVK | VGRGGGYFDY | ND / ND / ND | 0 of 9 |
| 21 | GFTFDDYAMW | AISWNSGSIPYADSVK | VGRGGGYFDY | 3.93 / ND / ND | 1 of 9 (3.58) |
| 22 | GFTFDDYLMH | GISWNSGSIGYADSVK | VGRHGGYFDY | ND / ND / ND | 1 of 9 (4.08) |
| 23 | GFTFRDYAMH | GISWNSGSIGYADSHK | VQRGGGYFDY | 1.52 / 1.98 / 1.15 | 2 of 9 (3.05) |
| 24 | GFTFDDYAQH | GISWNSGSIGYADSVK | IGREGGYFDY | ND / ND / ND | 0 of 9 |
| 25 | GFTFDDYSMH | GISWNSGKCGYADSVK | VGRGGGYFDY | 1.93 / 2.01 / 1.79 | 6 of 9 (5.25) |
| 26 | GFTFDDAAMH | EISWNSGSIGYADSVK | VGRGAGYFDY | ND / ND / ND | 0 of 9 |
| 27 | GFTFDYYAMH | GISWNSGSIGYIASVK | VGRGGGYFDY | 2.64 / 2.44 / 2.43 | 3 of 9 (5.07) |
| 28 | GFTFDDYAMH | GISRNSGSIGYADSVK | EGRGGLYFDY | ND / ND / ND | 0 of 9 |
| 29 | GFTFNDYAMH | GISWNSGSIGYADSHK | VGRGGGMFDY | 5.31 / 4.94 / 4.72 | 7 of 9 (5.36) |
| 30 | GGTFDDYAMH | GISWNNGSIGYADSVK | VSRGGGYFDY | ND / ND / ND | 5 of 9 (4.56) |
| 31 | GYTFDDYAMH | GISWYSGSIGYAVSVK | VGRGGGYFDY | ND / 3.53 / ND | 2 of 9 (2.98) |
| 32 | GFTFDDYAMH | GISWNSGSIGYADSVK | VGRYGQYFFY | ND / ND / ND | 0 of 9 |
| 33 | GFTSDDYAWH | GISWNSGSIGEADSVK | VGRGGGYFDY | 5.58 / ND / ND | 4 of 9 (4.34) |
| 34 | GFTFDDYAMH | GISWNSNTIGYADMVK | VGRGGGYFDY | 2.28 / 2.05 / 1.99 | 0 of 9 |
| 35 | GFTFDDYAMW | GISWNSGPIGYADSVK | VNRGGGYFDY | ND / 3.17 / ND | 0 of 9 |
| 36 | GFTFDDYAMH | GISWNSGIIGYADSVK | VMRGGGYFAY | 4.37 / 4.32 / ND | 6 of 9 (5.05) |
| 37 | GFTFDDYAMH | GISWNSFSIGYADSVK | VGRIGGYWDY | 2.40 / ND / ND | 0 of 9 |
| 38 | GFTFDDYAMH | GISWNSGHIGYAYSVK | VWRGGGYFDY | 3.99 / 3.58 / 4.73 | 6 of 9 (5.07) |
| 39 | GFTFDNYAMH | GISWNSGSIGYADSVK | VGRGGGYFFY | ND / ND / ND | 2 of 9 (3.24) |

For reference, the parent read 1.86 as the reference entry and 0.88 as a member of this library.

Data: MIT Lincoln Laboratory AlphaSeq set, Engelhart et al. 2022, doi:10.1038/s41597-022-01779-4, as distributed in FLAb.